# Values of other authors as cited in patent publication US4448717A, “Pharmacologically active peptides” (Eli Lilly and Company, priority 1982, dated 1984).
# Tested on: mice
# Conditions: cited from earlier work
substance,measurement,value
H-Tyr-Gly-Gly-Phe-Leu-OH [leucine enkephalin],analgesic activity when administered parenterally,practically devoid of any useful analgesic activity
